For this series the following is noted: rabbits; 30 mg sublingual tablet; mean ± SD. As for the experimental part:
Sublingual tablets or IM doses were administered using a Randomized Crossover study design over 5-consecutive weeks.
Animals were evaluated for viability once-daily throughout the study. Cageside clinical observations were performed twice-daily from the initiation of dosing until the end of treatment. Body weights were obtained upon receipt, on Study Day 1 and weekly thereafter.
Blood samples (approximately 1 mL/time point) were obtained from an indwelling arterial catheter placed approximately 30-minutes prior to initiation of sample collection. […]
Immediately after collection, the tube was inverted several times to disperse the anticoagulant and then placed on ice until centrifugation. […] (±10° C.) until analyzed. […]
A freshly prepared standard curve was analyzed along with samples on each day of analysis. […] Calibrator concentrations were 0.5, 1, 2, 4, 8, 12, 16 and 20 ng/mL as determined in the validation study. […]
Elimination half-life (T½), maximum concentration (Cmax), time of maximum concentration (Tmax), area under the plasma concentration-time curve from time 0 through the final timepoint (AUC0-t), and area under the plasma concentration-time curve from time 0 extrapolated to infinity (AUC0-∞) were calculated for this study. […] The elimination rate constant, lambda z (λz), was determined by WinNonlin using the best fit method.

With `CNC[C@H](O)c1ccc(O)c(O)c1` [Epinephrine], the Tmax2 was found to be 40.8 ± 29.4 min.
